# Results reported in patent publication US20250302983A1, “Saponin Conjugates” (priority 2018, published 2025).
# Experiments:
# [1] = tested on: HSP27 mRNA expression in A2058 cells (EGFR−); test: HSP27 gene silencing activity in A2058 cells; format: cell-based, human; details: titrated + 100 nM cetuximab-(Lys-L-HSP27BNA)^4 (FIG. 9B)
# Text: (§1) Upon release into the cytoplasm the antisense BNA recognizes and binds the mRNA encoding for HSP27, targeting the mRNA for destruction thereby depleting the HSP27 mRNA expression within the cancer cell.
# (§2) RNA from cells was isolated and analysed according to standard protocols (Biorad)
# [2] = tested on: HSP27 mRNA expression in A431 cells (EGFR++); test: HSP27 gene silencing activity in A431 cells; format: cell-based, human
# Text: as §1, §2
substance,measurement,setting,value
"cetuximab-(Cys-L-SO1861)^3,8: cetuximab conjugated via cysteines and labile linker to SO1861, DAR 3,8",gene silencing activity,[1],no gene silencing activity was observed
same,gene silencing activity,[2]; alone (FIG. 9A),did not show any gene silencing activity
same,HSP27 gene silencing,[2]; titrated + 100 nM cetuximab-(Lys-L-HSP27BNA)^4,strong HSP27 gene silencing
